Assay results from patent publication US10793563B2, “GCN2 inhibitors and uses thereof” (Merck Patent GmbH, priority 2018, dated 2020).

By UniProt entry, the sequences of proteins in these tests, tags left out.
UniProt Q9P2K8, whole entry: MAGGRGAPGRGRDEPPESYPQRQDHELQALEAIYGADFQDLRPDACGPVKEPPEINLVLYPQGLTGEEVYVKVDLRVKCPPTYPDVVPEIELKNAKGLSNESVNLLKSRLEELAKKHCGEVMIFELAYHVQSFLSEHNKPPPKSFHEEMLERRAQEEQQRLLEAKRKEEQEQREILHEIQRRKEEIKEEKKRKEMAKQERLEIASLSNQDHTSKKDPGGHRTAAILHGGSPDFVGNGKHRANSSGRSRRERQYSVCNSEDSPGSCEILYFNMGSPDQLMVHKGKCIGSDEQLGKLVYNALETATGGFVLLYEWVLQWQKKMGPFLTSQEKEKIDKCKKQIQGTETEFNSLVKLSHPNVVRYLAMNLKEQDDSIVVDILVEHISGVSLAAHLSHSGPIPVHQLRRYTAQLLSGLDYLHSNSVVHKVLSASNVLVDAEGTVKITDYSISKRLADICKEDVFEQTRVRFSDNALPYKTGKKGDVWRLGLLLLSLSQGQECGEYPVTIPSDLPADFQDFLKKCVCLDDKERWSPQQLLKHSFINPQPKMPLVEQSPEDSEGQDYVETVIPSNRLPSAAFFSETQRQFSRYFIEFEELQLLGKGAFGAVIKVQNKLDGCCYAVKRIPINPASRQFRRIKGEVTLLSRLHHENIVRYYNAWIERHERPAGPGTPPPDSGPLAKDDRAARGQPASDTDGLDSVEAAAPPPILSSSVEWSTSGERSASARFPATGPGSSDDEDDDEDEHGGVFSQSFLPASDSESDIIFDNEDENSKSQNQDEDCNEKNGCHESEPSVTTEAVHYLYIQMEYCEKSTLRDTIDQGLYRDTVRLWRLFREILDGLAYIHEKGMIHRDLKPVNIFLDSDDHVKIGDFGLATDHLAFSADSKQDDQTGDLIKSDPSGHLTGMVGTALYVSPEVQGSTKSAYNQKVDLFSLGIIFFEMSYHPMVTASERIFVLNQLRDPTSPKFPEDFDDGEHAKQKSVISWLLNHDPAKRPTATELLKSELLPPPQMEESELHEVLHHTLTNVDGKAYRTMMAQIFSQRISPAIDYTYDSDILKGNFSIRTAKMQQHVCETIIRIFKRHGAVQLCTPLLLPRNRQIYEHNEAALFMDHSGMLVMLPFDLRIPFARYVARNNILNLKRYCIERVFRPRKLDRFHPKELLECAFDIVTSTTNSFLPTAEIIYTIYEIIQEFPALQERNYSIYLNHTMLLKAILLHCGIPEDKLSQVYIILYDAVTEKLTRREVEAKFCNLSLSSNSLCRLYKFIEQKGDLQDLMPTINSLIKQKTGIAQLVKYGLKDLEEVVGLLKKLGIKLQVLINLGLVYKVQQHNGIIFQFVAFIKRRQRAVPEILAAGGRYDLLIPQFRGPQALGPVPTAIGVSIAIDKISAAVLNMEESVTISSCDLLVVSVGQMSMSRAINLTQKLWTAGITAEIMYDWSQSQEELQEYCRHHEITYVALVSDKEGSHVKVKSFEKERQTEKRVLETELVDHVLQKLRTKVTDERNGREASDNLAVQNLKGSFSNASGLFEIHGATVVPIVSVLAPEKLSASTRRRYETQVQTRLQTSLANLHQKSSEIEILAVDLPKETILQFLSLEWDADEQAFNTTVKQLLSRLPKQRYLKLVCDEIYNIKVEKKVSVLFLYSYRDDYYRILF

Target: GCN2 kinase (Homo sapiens (Human), UniProt Q9P2K8)
Experiment: GCN2 Enzyme Inhibition Assay (Transcreener ADP2 fluorescence polarization)
Assay type: biochemical
Settings: read-out: GCN2 (Ki); Ki(app); 280 μM ATP, 200 μM (RS)7 peptide, 4 nM GCN2, 25° C.

With `CC1CN(c2ccnc(-c3cnc4ccc(C(F)(F)F)cn34)n2)CC(c2cn[nH]c2)N1` (single isomer, unassigned) the Ki was < 10 nM.
